This note sets out measurements from PubChem BioAssay AID485317 (Broad Institute, 2010).

Sequences of proteins named here, by UniProt entry; tags and fusion partners are left off.
UniProt P55789, whole entry: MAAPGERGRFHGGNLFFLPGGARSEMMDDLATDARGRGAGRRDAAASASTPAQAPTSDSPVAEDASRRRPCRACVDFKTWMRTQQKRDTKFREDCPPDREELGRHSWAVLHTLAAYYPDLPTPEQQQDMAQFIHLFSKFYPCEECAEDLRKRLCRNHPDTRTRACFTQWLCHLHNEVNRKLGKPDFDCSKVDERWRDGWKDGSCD

Only a part is listed here, and it is no random draw. Some salts or complexes appear as unconnected parts, following the source record. The source made the active and inactive calls.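 Rule for the calls: active = mean replicate inhibition above about 79%, with every replicate also reaching it (limit read from the data); inconclusive = only one of the two criteria met; inactive = mean below limit and not every replicate reaching it.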

For the experiment, the target named is FAD-linked sulfhydryl oxidase ALR (Homo sapiens) (UniProt P55789). The experiment in a line: inhibitors of human ALR sulfhydryl oxidase, primary screen, biochemical, H2O2 detection, HRP-luminol luminescence, single point (AID 485317). Conditions: purified ALR, DTT oxidation, hits give high values, concentration not given here.
Regarding `Cc1nn(-c2ccccc2)c2c1P(=O)(N1CCOCC1)N(C)C(c1ccccc1)=N2` (stereo not drawn), the inhibition is inactive: -3.03%. The same measure for `CC1CCC(C(C)C)C(OP(=O)(Nc2ccccn2)c2ccccc2)C1` (stereo not drawn): inactive: -6.5%.

`Cc1ccc(C(=O)OC2CN3CCC2CC3)cc1` (stereo not drawn): the inhibition is inactive: -12.5%. Consider `COc1cc(C2NCCC3(OCCO3)C2(C)C)cc(OC)c1OC.O=[N+]([O-])c1cc([N+](=O)[O-])c(O)c([N+](=O)[O-])c1` (stereo not drawn), for which the inhibition was inactive: -3.11%.

With `CP(=O)(Nc1ccc(SC(F)(F)F)cc1)Oc1ccccc1` (stereo not drawn), the inhibition is inactive: -3.49%. The same measure for `Nc1cccc([As](=O)(O)c2ccccc2)c1`: inactive: -5.47%; for `CCCOc1ccc(NP(C)(=O)Oc2ccc(Cl)cc2)cc1` (stereo not drawn): inactive: -1.93%; for `O=P1(Nc2ccc(Br)cn2)COc2ccccc2OC1`: inactive: -16.4%. The result for `NS(=O)(=O)c1cccc(NC(=O)COC(=O)C(O)(c2ccccc2)c2ccccc2)c1` reads inactive: 0.06%; that for `Cc1ccc(OCC(=O)OC2CN3CCC2CC3)cc1` (stereo not drawn), inactive: -3.03%. The same measure for `O=[As](O)(c1cccs1)c1cccs1`: inactive: -0.704%; for `COc1ccccc1OP(C)(=O)Nc1c(C)cccc1C` (stereo not drawn): inactive: -0.165%. Take `CN1CCCCC1COC(=O)C1(O)c2ccccc2CCc2ccccc21` (stereo not drawn): the inhibition was inactive: -11.5%. For the molecule `COc1ccc(NP(C)(=O)Oc2ccccc2OC)cc1` (stereo not drawn), the inhibition was inactive: -5.25%. The same measure for `CN(C)CCOC(=O)C(O)(c1ccccc1)C1CCCCC1` (stereo not drawn): inactive: -7.43%; for `O=P(Nc1nc2ccccc2s1)(c1ccccc1)c1ccccc1`: inactive: 2.87%. The result for `C[C@H]1OP(=O)(Oc2ccccc2)[C@H](O)[C@H](O)[C@H]1N=[N+]=[N-]` (stereo partly drawn) reads inactive: -0.203%. As to `O=P(Nc1ccccn1)(c1ccc(Br)cc1)c1ccc(Br)cc1`, the inhibition was inactive: -8.85%.

With `CN(C)C1(CNC(=O)c2ccc(Cl)c(S(N)(=O)=O)c2)CCCCC1`, the inhibition was inactive: -9.38%. The result for `COc1ccc(OP(C)(=O)Nc2cccc(Br)c2)cc1` (stereo not drawn) reads inactive: -2.52%; that for `O=C(OC1CN2CCC1CC2)c1cccc(Cl)c1` (stereo not drawn), inactive: 1.25%. As for `Nc1ccc([As](=O)(O)c2ccc([N+](=O)[O-])cc2)cc1`, the inhibition is inactive: -7.82%. The same measure for `C(Cc1nn[nH]n1)Cc1nn[nH]n1`: inactive: 3.88%; for `O=[As](O)(c1ccccc1)c1ccc(O)cc1`: inactive: -0.88%; for `O=[N+]([O-])c1cc([N+](=O)[O-])c(NCC2CCS(=O)(=O)C2)c([N+](=O)[O-])c1` (stereo not drawn): inactive: -23.6%. The same measure for `O=[N+]([O-])c1ccc(OP2(=O)COCCO2)cc1` (stereo not drawn): inactive: -1.19%; for `c1nnnn1CCn1cnnn1`: inactive: -5.43%. Regarding `CCOP(C)(=S)SCC(=O)NC(C)(CC)C(=O)O` (stereo not drawn), the inhibition was inactive: -7.26%. As for `CC(C)C(=O)NC(Sc1ccccc1)C(Cl)(Cl)Cl` (stereo not drawn), the inhibition was inactive: -0.988%. The result for `O=P(Nc1nccs1)(c1ccccc1)c1ccccc1` reads inactive: 8.18%. As to `CP(=O)(Nc1ccc(SC(F)(F)F)cc1)Oc1ccc(F)cc1` (stereo not drawn), the inhibition is inactive: -1.69%. `Cc1ccccc1NP(C)(=O)Nc1ccccc1C`: the inhibition was inactive: -2.34%. The same measure for `CP(=O)(Nc1ccc2c(c1)OCCO2)Oc1ccccc1` (stereo not drawn): inactive: -25.3%.

Consider `CC(C)(C)C(=O)NC(Sc1ccccc1)C(Cl)(Cl)Cl` (stereo not drawn), for which the inhibition was inactive: -15.7%. Consider `CC(C)c1ccc(OP(C)(=O)Nc2ccc(SC(F)(F)F)cc2)cc1` (stereo not drawn), for which the inhibition was inactive: 0.653%. The same measure for `CP(=O)(Nc1ccccc1F)Oc1ccccc1` (stereo not drawn): inactive: -10.3%; for `O=P1(Nc2nc3ccc(Cl)cc3s2)COc2ccccc2O1` (stereo not drawn): inactive: 54.9%; for `COc1ccc2c(c1O)-c1c(O)c(OC)cc3c1[C@H](C2)[N+](C)(C)CC3.O=[N+]([O-])c1cc([N+](=O)[O-])c([O-])c([N+](=O)[O-])c1[O-]`: inactive: 6.94%. As for `CC(=O)Nc1ccc([As](=O)(O)O)c(O)c1`, the inhibition was inactive: -1.24%.

In the case of `O=C(OCCN1CCN(CCOCc2ccccc2)CC1)C(O)(c1ccccc1)c1ccccc1`, the inhibition was inactive: 0.375%. The result for `C[C@@H]1C=CCP(=O)(Oc2ccccc2)O1` (stereo partly drawn) reads inactive: 4.95%; that for `C[C@H]1OP(=O)(Oc2ccccc2)C[C@@H]2O[C@@H]21` (stereo partly drawn), inactive: -0.433%. For the molecule `CC(=O)c1ccc(N2CC2c2ccncc2)cc1` (stereo not drawn), the inhibition was inactive: -11.1%.

With `O=C(OC1CN2CCC1CC2)c1ccc([N+](=O)[O-])cc1` (stereo not drawn), the inhibition is inactive: -14.4%.

Take `COc1ccc(OP(C)(=O)Nc2ccc(SC(F)(F)F)cc2)cc1` (stereo not drawn): the inhibition is inactive: -5.03%.

Regarding `CCOC(=O)c1ccc(NP(C)(=O)Oc2ccc(F)cc2)cc1` (stereo not drawn), the inhibition was inactive: 1.83%. The result for `c1ccc(-c2nn[nH]n2)c(-c2nn[nH]n2)c1` reads inactive: -7.32%; that for `CCOC(=O)NC(Sc1ccccc1)C(Cl)(Cl)Cl` (stereo not drawn), inactive: 50.9%. With `CCNC(=S)/N=C(\N)N[N+](=O)[O-]`, the inhibition is inactive: -3.79%.

Turning to `O=C(NC1CCS(=O)(=O)C1)NP(=S)(Oc1ccccc1)Oc1ccccc1` (stereo not drawn), the inhibition is inactive: 0.976%.

Turning to `Cc1ccccc1OP(=O)(Nc1ccccn1)Oc1ccccc1C`, the inhibition was inactive: 1.83%.

`CC(NC(=O)COC(=O)C(O)(c1ccccc1)c1ccccc1)c1ccccc1` (stereo not drawn): the inhibition was inactive: -3.71%.

In the case of `CN(C)C(=O)Oc1noc2ccccc12`, the inhibition was inactive: -1.44%.

As to `CCCCCOc1ccc(NP(C)(=O)Oc2ccc(Cl)cc2Cl)cc1` (stereo not drawn), the inhibition was inactive: -6.48%. As to `CP(=O)(Nc1ccccc1)Oc1ccc(F)cc1` (stereo not drawn), the inhibition was inactive: -15.1%. As for `O=C(OC1CN2CCC1CC2)c1ccccc1` (stereo not drawn), the inhibition was inactive: -27.5%. The result for `CCN(CC)CCCOC(=O)C(O)(c1ccccc1)C1CCCCC1` (stereo not drawn) reads inactive: -8.8%; that for `CCC(=O)N1C2C3N(C(=O)CC)C1C1N(C(=O)CC)C(C(N1C(=O)CC)N3C(=O)CC)N2C(=O)CC`, inactive: -3.4%.

As usually defined, the inhibition is the relative decrease from the control value, in per cent.
